Results on four compounds are retold here after patent US20110045517A1, “Toxic Material Detection Apparatus and Method” (published 2011).

Data set [1] can be described thus: Stability of colorimetric reagents in solution.
A short description of data set [2]: Stability of the AChE solution (reaction with ATCI and DTNB, absorbance).
Setting [3] is: Day 0, New (fresh cold solution).
[4] abbreviates: Day 1, New (fresh cold solution).
[5] abbreviates: Day 2, New (fresh cold solution).

Where “and” joins values, the source holds several entries; their conditions need not be identical. Identical values can stand only once.

Guinea Green: the “stability versus pH (Comments column of Table 4)” value in data set [1] is reported as “Not stable in pH above 7.5”.

Turning to `O=C(O)c1cc(SSc2ccc([N+](=O)[O-])c(C(=O)O)c2)ccc1[N+](=O)[O-]`, the “light and temperature sensitivity in solution” value in data set [1] was “light- and temperature-sensitive”.

Regarding `CC(=O)SCC[N+](C)(C)C.[I-]`, in data set [1], the “stability versus pH (Comments column of Table 4)” value is given as “ATIC not stable in pH 7.8”; the “light and temperature sensitivity in solution” value was “light- and temperature-sensitive”. Besides, in data set [1] (Tris buffer), the “stability in Tris buffer” value is recorded as “not stable”. Moreover, the stability in water entry in data set [1] (water, kept cold and in an amber vial) is “stable”.

Turning to acetylcholinesterase, the “% Difference from day 0” value in data set [2] (setting [3]) is 0.0%; in data set [2] (setting [4]), −40.7%; in data set [2] (setting [5]), −58.5%; in data set [2] (Day 5, RT), −49.9%; in data set [2] (Day 6, RT), −53.2%. The “Difference absorbance reading, Average” value is 0.996 in data set [2] (setting [3]); 0.589 in data set [2] (setting [4]); 0.411 in data set [2] (setting [5]); 0.402 in data set [2] (Day 5, RT); 0.369 in data set [2] (Day 6, RT); 0.879 in data set [2] (Tris buffer, Day 0, Cold). For the same compound, the “Difference absorbance reading, Average” value in data set [2] (Tris buffer, Day 0, RT) came out at 0.901; in data set [2] (Tris buffer, Day 1, Cold), 0.500; in data set [2] (Tris buffer, Day 1, RT), 0.702; in data set [2] (Tris buffer, Day 4, Cold), 0.322; in data set [2] (Tris buffer, Day 4, RT), 0.555. In addition, the “Difference absorbance reading (individual readings)” value was 0.958 and 1.089 and 0.941 in data set [2] (Day 0, New (fresh cold solution, dilution Jul. 9, 2007)); 0.632 and 0.501 and 0.635 in data set [2] (Day 1, New (fresh cold solution, dilution Jul. 9, 2007)); 0.423 and 0.407 and 0.402 in data set [2] (Day 2, New (fresh cold solution, dilution Jul. 9, 2007)); 0.430 and 0.432 and 0.345 in data set [2] (Day 5, RT, dilution Jul. 5, 2007); 0.374 and 0.369 and 0.365 in data set [2] (Day 6, RT, dilution Jul. 5, 2007); 0.884 and 0.945 and 0.809 in data set [2] (Tris buffer, Day 0, Cold, 5 minute minus initial reading). Also, the “Difference absorbance reading (individual readings)” value was 0.841 and 1.019 and 0.844 in data set [2] (Tris buffer, Day 0, RT, 5 minute minus initial reading); 0.330 and 0.318 and 0.319 in data set [2] (Tris buffer, Day 4, Cold, 5 minute minus initial reading); 0.543 and 0.577 and 0.544 in data set [2] (Tris buffer, Day 4, RT, 5 minute minus initial reading). In addition, the “% Difference from day 0 (difference absorbance reading)” value in data set [2] (Tris buffer, Day 0, Cold) is recorded as 0.0%; in data set [2] (Tris buffer, Day 0, RT) it was 0.0%; in data set [2] (Tris buffer, Day 1, Cold) it was −38.0%; in data set [2] (Tris buffer, Day 1, RT), −20.0%; in data set [2] (Tris buffer, Day 4, Cold), −55.7%; in data set [2] (Tris buffer, Day 4, RT) it was −34.7%. Also, the “% Difference from day 0 (initial absorbance reading)” value is recorded as 0.0% in data set [2] (Tris buffer, Day 0, Cold); 0.0% in data set [2] (Tris buffer, Day 0, RT); −11.2% in data set [2] (Tris buffer, Day 1, Cold); −7.9% in data set [2] (Tris buffer, Day 1, RT); −18.5% in data set [2] (Tris buffer, Day 4, Cold); −14.8% in data set [2] (Tris buffer, Day 4, RT). Also, the “initial absorbance reading (individual readings)” value was 0.286 and 0.294 and 0.238 in data set [2] (Tris buffer, Day 0, Cold); 0.312 and 0.331 and 0.285 in data set [2] (Tris buffer, Day 0, RT); 0.087 and 0.089 and 0.088 in data set [2] (Tris buffer, Day 4, Cold); 0.162 and 0.164 and 0.158 in data set [2] (Tris buffer, Day 4, RT). For the same compound, the “initial absorbance reading, Average” value stood at 0.273 in data set [2] (Tris buffer, Day 0, Cold); 0.309 in data set [2] (Tris buffer, Day 0, RT); 0.161 in data set [2] (Tris buffer, Day 1, Cold); 0.231 in data set [2] (Tris buffer, Day 1, RT); 0.088 in data set [2] (Tris buffer, Day 4, Cold); 0.161 in data set [2] (Tris buffer, Day 4, RT).
